Assay results: patent US7528141B2, “Use of cyclopenta[g]quinazoline derivatives for treating cancer” (BTG International Limited, priority 2001, dated 2009)
“And” between values parts separate entries of the source, which are not always exact repeats. Identical values can stand only once.

Sequences of proteins named here, by UniProt entry; tags and fusion partners are left off. Residues count along the entry.
UniProt P41438, whole entry: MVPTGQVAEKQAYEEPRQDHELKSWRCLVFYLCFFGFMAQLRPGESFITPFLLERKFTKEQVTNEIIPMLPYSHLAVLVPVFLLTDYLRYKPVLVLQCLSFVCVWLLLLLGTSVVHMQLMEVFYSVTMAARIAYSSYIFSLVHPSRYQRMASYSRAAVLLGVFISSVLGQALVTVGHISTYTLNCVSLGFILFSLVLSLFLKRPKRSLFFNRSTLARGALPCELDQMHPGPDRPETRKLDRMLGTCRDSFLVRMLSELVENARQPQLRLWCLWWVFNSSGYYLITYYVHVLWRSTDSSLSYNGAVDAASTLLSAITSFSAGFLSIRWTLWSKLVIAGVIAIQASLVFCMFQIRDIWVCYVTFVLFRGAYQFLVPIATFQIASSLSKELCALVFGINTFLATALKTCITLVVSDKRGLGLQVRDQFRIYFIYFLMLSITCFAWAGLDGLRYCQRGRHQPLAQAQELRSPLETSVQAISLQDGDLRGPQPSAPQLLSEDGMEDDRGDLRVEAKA
UniProt P35846, 25-232 limits assumed: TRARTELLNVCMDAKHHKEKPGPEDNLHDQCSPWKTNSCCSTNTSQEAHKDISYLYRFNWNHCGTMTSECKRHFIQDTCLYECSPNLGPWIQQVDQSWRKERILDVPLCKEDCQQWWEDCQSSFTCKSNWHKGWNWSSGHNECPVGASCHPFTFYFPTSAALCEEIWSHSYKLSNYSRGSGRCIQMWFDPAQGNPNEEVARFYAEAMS
UniProt P41440, whole entry: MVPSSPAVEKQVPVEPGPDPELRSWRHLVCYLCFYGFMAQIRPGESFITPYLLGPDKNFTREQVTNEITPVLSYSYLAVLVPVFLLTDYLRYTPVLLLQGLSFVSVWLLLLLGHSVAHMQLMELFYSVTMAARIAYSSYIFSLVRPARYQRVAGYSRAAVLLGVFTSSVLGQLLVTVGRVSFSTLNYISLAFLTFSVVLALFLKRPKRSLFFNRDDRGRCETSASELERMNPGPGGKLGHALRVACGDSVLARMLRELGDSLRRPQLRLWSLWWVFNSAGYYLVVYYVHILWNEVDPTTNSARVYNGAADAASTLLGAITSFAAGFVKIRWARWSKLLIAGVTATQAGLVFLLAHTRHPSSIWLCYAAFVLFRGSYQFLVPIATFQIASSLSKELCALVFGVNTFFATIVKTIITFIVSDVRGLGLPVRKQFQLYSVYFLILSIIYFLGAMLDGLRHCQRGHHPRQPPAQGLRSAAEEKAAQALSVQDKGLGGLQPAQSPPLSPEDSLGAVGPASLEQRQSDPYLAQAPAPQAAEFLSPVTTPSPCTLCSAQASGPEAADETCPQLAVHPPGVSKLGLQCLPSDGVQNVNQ
UniProt P07607, whole entry: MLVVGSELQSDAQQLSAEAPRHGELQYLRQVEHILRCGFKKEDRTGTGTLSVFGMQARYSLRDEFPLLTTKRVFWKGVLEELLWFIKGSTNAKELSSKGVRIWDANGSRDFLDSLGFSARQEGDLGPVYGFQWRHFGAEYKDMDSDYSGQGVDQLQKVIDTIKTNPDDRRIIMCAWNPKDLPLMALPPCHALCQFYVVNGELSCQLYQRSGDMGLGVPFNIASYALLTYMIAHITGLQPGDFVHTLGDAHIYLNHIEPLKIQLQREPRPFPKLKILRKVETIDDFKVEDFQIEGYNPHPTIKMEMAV
UniProt P15328, 25-234 limits assumed: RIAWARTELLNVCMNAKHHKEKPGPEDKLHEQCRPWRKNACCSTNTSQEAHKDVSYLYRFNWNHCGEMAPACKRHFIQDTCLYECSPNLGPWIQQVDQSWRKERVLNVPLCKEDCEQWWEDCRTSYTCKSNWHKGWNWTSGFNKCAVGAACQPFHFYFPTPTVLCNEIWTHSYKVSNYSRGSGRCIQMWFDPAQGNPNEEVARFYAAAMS

Tests used:
[1] = target: reduced-folate carrier (RFC) (Mus musculus, UniProt P41438); experiment: Inhibition of 3H MTX uptake in L1210 cells; type: cell-based; conditions: read-out: Inhibition of 3H MTX uptake Ki, L1210; mouse L1210 tumor cells; high Ki = low affinity for RFC
α-FR [2] = target: α-FR (Mus musculus, UniProt P35846); experiment: Binding to α-FR relative to folic acid, L1210-FBP cells; conditions: L1210-FBP mouse tumor cells overexpressing α-FR; folic acid = 1
[3] = target: reduced-folate carrier (RFC) (Homo sapiens, UniProt P41440); experiment: Inhibition of 3H MTX uptake in W1L2 cells; type: cell-based; conditions: read-out: Inhibition of 3H MTX uptake Ki, W1L2; human lymphoblastoid W1L2 cells; high Ki = low affinity for RFC
[4] = target: thymidylate synthase (TS) from L1210 mouse leukaemia cells (Mus musculus, UniProt P07607); experiment: Inhibition of isolated L1210 thymidylate synthase; type: biochemical; conditions: read-out: Inhibition of isolated L1210 TS, Kiapp
α-FR [5] = target: α-FR (Homo sapiens, UniProt P15328); experiment: Binding to α-FR relative to folic acid, A431-FBP cells; conditions: human A431 cells transfected with α-FR; folic acid = 1

| SMILES | Ki [1] [µM] | Inverse relative affinity for α-FR, L1210-FBP (α-FR [2]) | IC50 (KB cells) | IC50 (A431-FBP cells) [µM] | IC50 (A431 cells) [µM] | Ki [3] [µM] | Ki [4] [µM] | Inverse relative affinity for α-FR, A431-FBP (α-FR [5]) |
| --- | --- | --- | --- | --- | --- | --- | --- | --- |
| C#CCN(Cc1cc2c(=O)[nH]c(C)nc2cc1C)c1ccc(C(=O)N[C@@H](CCC(=O)N[C@H](CCC(=O)O)C(=O)O)C(=O)O)cc1 | 269 | 0.31 ± 0.0089 | 0.21 µM | 0.47 | 1.1 | 83 | 0.002 |  |
| C#CCN(c1ccc(C(=O)N[C@@H](CCC(=O)O)C(=O)O)cc1)C1CCc2cc3nc(N)[nH]c(=O)c3cc21 (stereo partly drawn) |  | 0.73 ± 0.035 | 26 µM and 15 µM | 20 | 23 |  | 0.00075 | 0.57 ± 0.059 |
| C#CCN(Cc1cc2c(=O)[nH]c(C)nc2cc1C)c1ccc(C(=O)N[C@@H](CCc2nnn[nH]2)C(=O)O)c(F)c1 | 2.4 |  | 0.01 µM |  |  | 0.76 |  |  |
| C#CCN(c1ccc(C(=O)N[C@@H](CCC(=O)O)C(=O)O)cc1)[C@H]1CCc2cc3nc(C)[nH]c(=O)c3cc21 | 9.1 |  | 0.21 µM | 0.36 | 0.77 | 4.9 |  |  |
